From PMC9923772 (ACS chemical neuroscience, 2020)

What was measured:
human KOR [1] = target: T1, human KOR (Homo sapiens, UniProt P41145); test: [35S]-GTPγS binding assay, CHO-KOR membranes; type: biochemical; details: for Potency, EC50 KOR: [35S]GTPγS stimulation, DNS = does not stimulate
human DOR [2] = target: T2, human DOR (Homo sapiens, UniProt P41143); test: biochemical; type: biochemical; details: for Potency, EC50 DOR: [35S]GTPγS stimulation, DNS = does not stimulate
human MOR [3] = target: T3, human MOR (Homo sapiens, UniProt P35372); test: biochemical; type: binding
human MOR [4] = target: T3, human MOR; test: biochemical
human KOR [5] = target: T1, human KOR; type: binding
human DOR [6] = target: T2, human DOR; test: biochemical; type: binding

Compound | Potency, EC50 KOR (human KOR [1]; Table 2) | EC50 (human DOR [2]) [nM] | Ki (human MOR [3]) [nM] | EC50 (human MOR [4]) [nM] | Ki (human KOR [5]) [nM] | Ki (human DOR [6]) [nM] | Potency, EC50 KOR (human KOR [1]; Table 5) | Potency, EC50 DOR (human DOR [2]; Table 5) | Potency, EC50 DOR (human DOR [2]; Table 2) | EC50 (human KOR [1]) [nM]
Cc1cc(O)cc(C)c1C[C@H](N)C(=O)NCc1cc(CN2CCCCC2)ccc1OCC1CC1.O=C(O)C(F)(F)F [D, (S)-1-((2-(Cyclopropylmethoxy)-5-(piperidin-1-ylmethyl)benzyl)amino)-3-(4-hydroxy-2,6-dimethylphenyl)-1-oxopropan-2-aminium Trifluoroacetate] | DNS | 158 ± 68 | 6.5 ± 1.2 | 377 ± 63 | 325 ± 35 | 11.2 ± 4 |  |  |  | 
Cc1cc(O)cc(C)c1C[C@H](N)C(=O)NCc1cccc(CN2CCc3ccccc3C2)c1.O=C(O)C(F)(F)F [E, (S)-1-((3-((3,4-Dihydroisoquinolin-2(1H)-yl)methyl)benzyl)amino)-3-(4-hydroxy-2,6-dimethylphenyl)-1-oxopropan-2-aminium Trifluoroacetate] |  | 490 ± 170 |  |  |  | 4.8 ± 1 |  |  |  | 
Cc1cc(O)cc(C)c1C[C@H](N)C(=O)NCCOCC(=O)N1CCc2ccccc2C1.O=C(O)C(F)(F)F [K, (S)-1-((2-(2-(3,4-Dihydroisoquinolin-2(1H)-yl)-2-oxoethoxy)-ethyl)amino)-3-(4-hydroxy-2,6-dimethylphenyl)-1-oxopropan-2-aminium Trifluoroacetate] |  |  | 1.28 ± 0.68 | 2.29 ± 0.37 | 12.5 ± 2.5 | 17.5 ± 5.7 | DNS | DNS |  | 
CCCOc1ccc(CN2CCCCC2)cc1CNC(=O)[C@@H](N)Cc1c(C)cc(O)cc1C.O=C(O)C(F)(F)F [C, (S)-3-(4-Hydroxy-2,6-dimethylphenyl)-1-oxo-1-((5-(piperidin-1-ylmethyl)-2-propoxybenzyl)amino)propan-2-aminium Trifluoroacetate] | DNS | 117 ± 45 | 4.6 ± 0.2 | 183 ± 46 | 460 ± 170 | 20.1 ± 2.1 |  |  |  | 
Cc1cc(O)cc(C)c1C[C@H](N)C(=O)NCc1cccc(CN2CCCCC2)c1.O=C(O)C(F)(F)F [A, (S)-3-(4-Hydroxy-2,6-dimethylphenyl)-1-oxo-1-((3-(piperidin-1-ylmethyl)benzyl)amino)propan-2-aminium Trifluoroacetate] | DNS |  |  |  | 82.8 ± 7.3 | 143 ± 25 |  |  | DNS | 
Cc1cc(O)cc(C)c1C[C@H](N)C(=O)NCCOCCN1CCc2ccccc2C1.O=C(O)C(F)(F)F [J, (S)-1-((2-(2-(3,4-Dihydroisoquinolin-2(1H)-yl)ethoxy)ethyl)amino)-3-(4-hydroxy-2,6-dimethylphenyl)-1-oxopropan-2-aminium Trifluoroacetate] |  | 243 ± 23 | 0.64 ± 0.19 | 9.6 ± 3.1 | 45 ± 12 | 113 ± 21 |  |  |  | 1060 ± 180
Cc1cc(O)cc(C)c1C[C@H](N)C(=O)N1CCC(CCN2CCc3ccccc3C2)CC1.O=C(O)C(F)(F)F [L, (S)-1-(4-(2-(3,4-Dihydroisoquinolin-2(1H)-yl)ethyl)piperidin-1-yl)-3-(4-hydroxy-2,6-dimethylphenyl)-1-oxopropan-2-aminium Trifluoroacetate] |  |  |  |  |  | 130 ± 17 |  | DNS |  | 
Cc1cc(O)cc(C)c1C[C@H](N)C(=O)NCC(=O)N(C)CCN1CCc2ccccc2C1.O=C(O)C(F)(F)F [O, (S)-1-((2-((2-(3,4-Dihydroisoquinolin-2(1H)-yl)ethyl)(methyl)amino)-2-oxoethyl)amino)-3-(4-hydroxy-2,6-dimethylphenyl)-1-oxopropan-2-aminium Trifluoroacetate] |  |  | 24 ± 11 | 568 ± 56 | 780 ± 570 | 24.7 ± 5 | DNS | DNS |  | 
COc1ccc(CN2CCCCC2)cc1CNC(=O)[C@@H](N)Cc1c(C)cc(O)cc1C.O=C(O)C(F)(F)F [B, (S)-3-(4-Hydroxy-2,6-dimethylphenyl)-1-((2-methoxy-5-(piperidin-1-ylmethyl)benzyl)amino)-1-oxopropan-2-aminium Trifluoroacetate] |  | 143 ± 76 | 7.5 ± 2.2 | 740 ± 330 |  | 41 ± 16 |  |  |  | 
Cc1cc(O)cc(C)c1C[C@H](N)C(=O)N1CCN(CCN2CCc3ccccc3C2)CC1.O=C(O)C(F)(F)F [M, (S)-1-(4-(2-(3,4-Dihydroisoquinolin-2(1H)-yl)ethyl)piperazin-1-yl)-3-(4-hydroxy-2,6-dimethylphenyl)-1-oxopropan-2-aminium Trifluoroacetate] |  |  |  |  | 173 ± 20 |  | DNS |  |  | 
Cc1cc(O)cc(C)c1C[C@H](N)C(=O)NCCCCCN1CCc2ccccc2C1.O=C(O)C(F)(F)F [I, (S)-1-((5-(3,4-Dihydroisoquinolin-2(1H)-yl)pentyl)amino)-3-(4-hydroxy-2,6-dimethylphenyl)-1-oxopropan-2-aminium Trifluoroacetate] |  |  |  |  |  | 142 ± 16 |  | DNS |  | 
Cc1cc(O)cc(C)c1C[C@H](N)C(=O)NCC(=O)NCCN1CCc2ccccc2C1.O=C(O)C(F)(F)F [P, (S)-1-((2-((2-(3,4-Dihydroisoquinolin-2(1H)-yl)ethyl)amino)-2-oxoethyl)amino)-3-(4-hydroxy-2,6-dimethylphenyl)-1-oxopropan-2-aminium Trifluoroacetate] |  | 99 ± 16 | 1.32 ± 0.38 | 6 ± 1 | 107 ± 35 | 7.3 ± 1.5 | DNS |  |  | 
CCCOc1ccc(CN2CCc3ccccc3C2)cc1CNC(=O)[C@@H](N)Cc1c(C)cc(O)cc1C.O=C(O)C(F)(F)F [G, (S)-1-((5-((3,4-Dihydroisoquinolin-2(1H)-yl)methyl)-2-propoxybenzyl)amino)-3-(4-hydroxy-2,6-dimethylphenyl)-1-oxopropan-2-aminium Trifluoroacetate] | DNS |  |  |  | 202 ± 18 |  |  |  |  | 
